Assay results as given in article PMC4373786.

Biological target: angiotensin II receptor type 1 (AT1), non-BRET tagged (UniProt P30556)
Conditions: scale: log of EC50

AngII LogEC50 of IP1 production, cells expressing AT1 receptor, 0 nM CCL2: -8.61
AngII LogEC50 of IP1 production, cells expressing AT1 receptor, 10 nM CCL2: -8.65
AngII LogEC50 of IP1 production, cells expressing AT1 receptor, 1000 nM CCL2: -8.85
Substance: angiotensin II (AngII) (peptide)
